Screens from PubChem BioAssay.
Glioma ERSR ind = induces the endoplasmic reticulum stress response in human glioma cells; Potency, µM, for the others: at the top dose activation, most hits filed as activators; U87-MG GRP78 promoter luciferase reporter, 16 h; hit rate 0.02% among 420,000; AID 602332; further: potency means the concentration at half of the fitted maximal effect; series mostly up to about 76 µM; % of control where 0% means no effect; nearly all actives have a fitted effect of over 35% in size
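Stably transfected U87-MG glioma cells carrying a GRP78-based luciferase sensor; 16 h compound incubation. Luminescence end-point read 10 min after Bright-Glo addition at room temperature.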
A549 tox-1 = A549 cytotoxicity, counter-screen for Nrf2 inhibitors | AID 504648 | A549 ARE-Fluc cells, CellTiter-Fluor viability, 18-24 h | Potency, µM (highest dose often 46 µM), for the others: at the highest dose activity change, negative = cytotoxicity, actives largely listed as inhibitors | hit rate 0.16% among 390,000; further: potency means the concentration at half of the fitted maximal effect; on the % scale 0 is the no-effect control and ±100 the full control effect
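Cytotoxicity counterscreen: CellTiter-Fluor fluorescence was measured in A549 ARE_Fluc cells after 18-24 h of compound exposure in a concentration series. The subsequent BugLite luminescent read reports ARE-luciferase activity.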
Nrf2 ARE act = activators of Nrf2 (ARE) signaling | AREc32 ARE-luciferase reporter (MCF7-derived line), luminescence, 24 h | hit rate 0.31% among 410,000 | AID 624171 | Potency, µM (highest dose often 46.1 µM), for inactives: top-dose activation, usual class: activators; further: potency means the concentration at half of the fitted maximal effect; % of control where 0% means no effect; nearly all actives have a fitted effect of over 65% in size
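Cells of the AREc32 ARE-luciferase line are plated in OPTI-MEM containing 5% FBS and left overnight at 37 deg C. Compounds are pinned in, incubation continues 24 hr, and firefly luciferase signal is then measured.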
miR-21 reporter = miR-21 reporter, rising signal | AID 2288 | HeLa miR-21 FLuc reporter, luciferase, 48 h | 340,000 tested, under 10 active | Potency, µM (doses to about 38.3 µM), for inactives: at the top dose reporter change, positive = more light; active = well fitted rising curve with a large enough effect; inconclusive = small, poorly fitted or top-dose-only effect; inactive = no such curve, though single readings can be large or run the other way;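 note: % of control where 0% means no effect; miR-21 action dims this reporter so a rising signal means less miR-21 action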
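Using DMEM plus 10% FBS, HeLa miR-21-FLuc cells are incubated with test compounds (final up to about 40uM) for 48 hours; firefly luciferase signal is then imaged following reagent-mediated lysis.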
TSG101-PTAP inh = blocks PTAP/TSG101 interaction to inhibit HIV-1 budding; Q99816; Fluorescence polarization, FITC-PTAP peptide / Tsg101 binding; Potency, µM (titrated, usually from 115 µM), for the others: at the highest dose activity change, negative = inhibition, actives largely listed as inhibitors; 340,000 tested, under 10 active; AID 493005; active means well fitted inhibition curve with a large enough effect in the main read-out, with a control signal flat, not every such curve was filed as active; inconclusive means small, poorly fitted or top-dose-only effect, or effect the other way, or a change in a side signal; inactive means no such curve, though single readings can be large or run the other way; further: potency means the concentration at half of the fitted maximal effect; % of control where 0% means no effect
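Steps: Tsg101 binding domain dispensed (10 uM final), compounds pinned in DMSO, FITC-labeled PTAP-motif peptide added (50 nM final); after 20 min binding at room temperature, polarization measured.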
Nrf2 block = blocks Nrf2 signaling. A549 ARE-Fluc reporter, luciferase luminescence, 18-24 h. AID 504444. hit rate 2.1% among 360,000. Potency, µM (doses to about 46 µM), for the others: top-dose activity change, negative = inhibition, most hits filed as inhibitors; further: potency means the concentration at half of the fitted maximal effect; on the % scale 0 is the no-effect control and ±100 the full control effect; nearly all actives have a fitted effect of over 60% in size
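A549 ARE_Fluc cells, 5000/well, 5% FBS OPTI-MEM; compounds in dose-response, 18-24 h at 37 °C/5% CO2; CellTiter-Fluor viability read (Ex 405/Em 525), then BugLite luciferase luminescence = Nrf2 activity.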
FLuc counter 3 = blocks purified firefly luciferase in Nrf2 counterscreen; shares compounds with Nrf2 block; purified firefly luciferase, luminescence inhibition; Potency, µM (highest dose often 57.5 µM), for inactives: top-dose activity change, negative = inhibition, usual class: inhibitors; hit rate 4% among 1,400; AID 720522; further: potency means the concentration at half of the fitted maximal effect; on the % scale 0 is the no-effect control and ±100 the full control effect; nearly all actives have a fitted effect of over 65% in size
A549 tox-2 = A549 cytotoxicity, Nrf2 inhibitor counterscreen | hit rate 2% among 1,400 | shares compounds with Nrf2 block | A549 ARE-Fluc cells, cytotoxicity counterscreen | Potency, µM (highest dose often 46.1 µM), without a hit: at the top dose activity change, negative = cytotoxicity, hits mostly inhibitors;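 further: potency means the concentration at half of the fitted maximal effect; cells exposed to compounds for 18 to 24 hours; on the % scale 0 is the no-effect control and ±100 the full control effect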
Nrf2 ARE inh = confirmation of Nrf2 inhibitors in A549 ARE reporter cells. Potency, µM (highest dose often 46.1 µM), for inactives: top-dose activity change, negative = inhibition, hits mostly inhibitors. shares compounds with Nrf2 block. AID 720524. hit rate 74% among 1,400. A549 ARE-firefly luciferase reporter, luminescence; further: potency means the concentration at half of the fitted maximal effect; on the % scale 0 is the no-effect control and ±100 the full control effect; nearly all actives have a fitted effect of over 65% in size
Starred values were filed as active, the others as inactive; ? = inconclusive; . = no result given. Sampled rows, rich in hits. Any-hit rate of the full collection: about 2.1%. Unless noted, the call rests on the fitted dose curve; in most records, active means well fitted curve in the direction sought with a large enough effect; inconclusive means small, poorly fitted or top-dose-only effect, or another doubt; inactive means no such curve, though single readings can be large; an effect the other way counts as inactive or inconclusive.

Below each SMILES – Glioma ERSR ind | A549 tox-1 | Nrf2 ARE act | miR-21 reporter | TSG101-PTAP inh | Nrf2 block | FLuc counter 3 | A549 tox-2 | Nrf2 ARE inh
[1] CCC(C)C1NC(=O)C(NC(=O)C(CC(C)C)N(C)C(=O)C2CCCN2C(=O)C(C)O)C(C)OC(=O)C(Cc2ccc(OC)cc2)N(C)C(=O)C2CCCN2C(=O)C(CC(C)C)NC(=O)[C@H](C)C(=O)[C@H](C(C)C)OC(=O)CC1O (stereo partly drawn)
    -6% | 0.037µM* | -1% | . | 1% | 0.0073µM* | 2% | ? | 0.01µM*
[2] O=C(Nc1cccc(Cl)c1)c1cnc2sc(N3CCCC3)nn2c1=O
    . | -1% | 0% | 6% | . | 5.2µM* | -3% | -11% | 4.6µM*
[3] COc1ccc(CCNC(=O)c2cnc3sc(N4CCCCCC4)nn3c2=O)cc1
    0% | -8% | 1% | -7% | . | ? | . | . | .
[4] CCc1ccccc1NC(=O)C(CC)Oc1ccccc1-c1nnc(-c2ccccc2)o1 (stereo not drawn)
    -1% | -23% | -1% | ? | . | ? | . | . | .
[5] CC1=C(N2CC2)C(=O)C(CO)=C(N2CC2)C1=O
    -14% | 9.2µM* | -3% | . | -1% | 0.52µM* | 2% | -10% | 1.6µM*
[6] CN(C)CCc1c[nH]c2cccc(O)c12
    1% | . | . | . | . | . | . | . | .
[7] COC(=O)C12OCC34C(CC5C(C)=C(O)C(=O)CC5(C)C3C(O)C1O)OC(=O)C(OC(=O)/C=C(\C)C(C)C)C24 (stereo not drawn)
    -5% | 0.29µM* | -2% | . | 1% | 0.058µM* | 0% | -12% | 1.2µM*
[8] CNC(=S)S
    -7% | . | . | . | . | . | . | . | .
[9] CC12CC[C@H]3[C@@H](CCC4(O)C[C@H](O)CCC34/C=N/NC(=O)c3ccccc3F)C1(O)CCC2C1=CC(=O)OC1 (stereo partly drawn)
    3% | -25% | 4% | 27% | -2% | 9.2µM* | -10% | ? | 12µM*
[10] CN(C)c1ccc(C(=O)N/N=C/C23CC[C@@H](O)CC2(O)CC[C@@H]2[C@@H]3CCC3(C)C(C4=CC(=O)OC4)CCC23O)cc1 (stereo partly drawn)
    -8% | ? | -5% | ? | -4% | 5.8µM* | 1% | ? | 3.7µM*
[11] CC12CC[C@H]3[C@@H](CCC4(O)C[C@H](O)CCC34/C=N/NC(=O)c3ccc(O)cc3)C1(O)CCC2C1=CC(=O)OC1 (stereo partly drawn)
    -5% | -12% | 0% | -13% | 1% | -30% | . | . | .
[12] CC12CC[C@H]3[C@@H](CCC4(O)C[C@H](O)CCC34/C=N/NC(=O)c3ccccc3O)C1(O)CCC2C1=CC(=O)OC1 (stereo partly drawn)
    -1% | -1% | 1% | 26% | -3% | ? | . | . | .
[13] CC(=O)c1cn(Cc2ccccc2C#N)c2ccccc12
    0% | ? | 1% | 20% | -1% | 1µM* | 3% | -12% | -34%
[14] CC(=O)OC[C@]12CCC(C)=C[C@H]1O[C@@H]1[C@H](O)[C@@H](OC(C)=O)[C@@]2(C)[C@]12CO2
    0% | ? | -2% | ? | -7% | 0.018µM* | 0% | -9% | 2.6µM*
[15] NC(=S)c1cn(C2OC(CO)C(O)C2O)c2ncnc(N)c12 (stereo not drawn)
    -5% | ? | -2% | ? | 1% | ? | . | . | .
[16] Nc1ncnc2c1ccn2[C@@H]1O[C@H](CO)[C@@H](O)[C@H]1O
    -4% | ? | -1% | . | 0% | 3.7µM* | -2% | ? | 0.65µM*
[17] OC(c1ccc(Cl)cc1)(c1cncnc1)c1ccccc1Cl (stereo not drawn)
    -2% | . | . | . | . | . | . | . | .

An excerpt from above, showing only A549 tox-2, Nrf2 ARE inh and TSG101-PTAP inh:
cpd	SMILES	A549 tox-2	Nrf2 ARE inh	TSG101-PTAP inh
12	CC12CC[C@H]3[C@@H](CCC4(O)C[C@H](O)CCC34/C=N/NC(=O)c3ccccc3O)C1(O)CCC2C1=CC(=O)OC1 (stereo partly drawn)	.	.	-3%
13	CC(=O)c1cn(Cc2ccccc2C#N)c2ccccc12	-12%	-34%	-1%
14	CC(=O)OC[C@]12CCC(C)=C[C@H]1O[C@@H]1[C@H](O)[C@@H](OC(C)=O)[C@@]2(C)[C@]12CO2	-9%	2.6µM*	-7%
